Data: patent publication US20140193463A1, “PEPTIDE FOR INHIBITING DIPEPTIDYL-PEPTIDASE IV” (CHINA MEDICAL UNIVERSITY, priority 2013, published 2014)
Converted amounts (≈) assume the structure as drawn. Where two headings read alike, the source gives them in different places.

Sequences of proteins named here, by UniProt entry; tags and fusion partners are left off. A change or cut given only in a name is not applied to a line headed by its entry.
UniProt P22411: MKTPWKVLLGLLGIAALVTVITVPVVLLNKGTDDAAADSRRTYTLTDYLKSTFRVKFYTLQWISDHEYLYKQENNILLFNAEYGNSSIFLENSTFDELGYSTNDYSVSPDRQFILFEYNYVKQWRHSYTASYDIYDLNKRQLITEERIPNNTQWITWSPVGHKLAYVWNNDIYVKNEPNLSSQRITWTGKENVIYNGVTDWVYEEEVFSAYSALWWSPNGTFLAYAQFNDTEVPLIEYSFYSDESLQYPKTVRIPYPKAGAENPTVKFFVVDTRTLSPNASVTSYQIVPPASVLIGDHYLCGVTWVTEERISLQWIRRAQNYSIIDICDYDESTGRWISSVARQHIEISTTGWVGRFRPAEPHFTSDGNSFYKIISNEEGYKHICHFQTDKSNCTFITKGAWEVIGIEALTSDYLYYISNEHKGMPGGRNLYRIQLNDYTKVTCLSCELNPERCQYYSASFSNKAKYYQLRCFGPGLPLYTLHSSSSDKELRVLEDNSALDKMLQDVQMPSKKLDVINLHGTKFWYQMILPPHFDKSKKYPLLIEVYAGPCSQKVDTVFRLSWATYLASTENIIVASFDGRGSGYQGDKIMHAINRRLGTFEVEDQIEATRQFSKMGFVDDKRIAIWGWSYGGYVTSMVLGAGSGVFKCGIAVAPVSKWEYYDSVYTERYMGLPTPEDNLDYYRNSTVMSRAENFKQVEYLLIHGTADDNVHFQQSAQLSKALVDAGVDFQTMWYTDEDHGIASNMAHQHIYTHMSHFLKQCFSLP
UniProt P27487, whole entry, species assumed: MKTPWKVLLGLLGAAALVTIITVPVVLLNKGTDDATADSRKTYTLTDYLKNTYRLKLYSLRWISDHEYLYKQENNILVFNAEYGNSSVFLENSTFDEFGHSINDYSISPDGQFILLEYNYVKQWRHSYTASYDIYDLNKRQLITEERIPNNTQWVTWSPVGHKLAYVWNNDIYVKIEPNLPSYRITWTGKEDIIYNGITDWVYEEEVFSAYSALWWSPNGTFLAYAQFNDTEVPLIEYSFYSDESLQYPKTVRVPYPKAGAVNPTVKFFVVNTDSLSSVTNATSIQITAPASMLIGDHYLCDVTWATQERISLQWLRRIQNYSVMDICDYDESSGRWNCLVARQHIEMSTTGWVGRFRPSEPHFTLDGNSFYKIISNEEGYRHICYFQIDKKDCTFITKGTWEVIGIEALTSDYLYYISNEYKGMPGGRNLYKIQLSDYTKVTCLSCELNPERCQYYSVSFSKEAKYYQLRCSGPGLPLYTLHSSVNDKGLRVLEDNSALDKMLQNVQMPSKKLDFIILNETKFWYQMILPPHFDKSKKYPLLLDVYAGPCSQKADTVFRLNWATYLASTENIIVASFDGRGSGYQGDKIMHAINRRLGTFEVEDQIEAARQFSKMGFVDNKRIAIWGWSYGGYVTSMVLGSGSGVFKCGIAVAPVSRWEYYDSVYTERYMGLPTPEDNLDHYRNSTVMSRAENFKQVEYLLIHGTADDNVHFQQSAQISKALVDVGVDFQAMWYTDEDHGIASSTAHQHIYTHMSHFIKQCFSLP

Tests used:
[1] = molecular target: T1, Dipeptidyl-peptidase IV (D7052, from porcine kidney) (Sus scrofa, UniProt P22411); assay: Determination of DPP-IV-inhibitory activity (Gly-Pro-p-nitroanilide substrate, absorbance 405 nm); format: biochemical; details: synthetic peptides and diprotin A, present example (FIG. 4A-4C)
T1 construct: Dipeptidyl-peptidase IV (D7052, from porcine kidney); purchased Sigma-Aldrich D7052; host or cells: porcine kidney (tissue-derived)
Method: Atlantic salmon (Salmo salar) fish skins, processing byproducts recovered from fresh skin-off fillets, were supplied by Albion Fisheries Ltd. (Vancouver, BC, Canada). The fish skins were transferred on ice, vacuum packed, and stored at −25° C. until use. Three food-grade proteolytic enzymes were donated by Neova Technologies Inc. (Abbotsford, BC, Canada). Alcalase 2.4 L FG (from Bacillus licheniformis, 2.4 AU/g) and Flavourzyme 1000 L (from Aspergillus oryzae, 1000 LAPU/g) were products from Novo-zymes North America Inc. (Salem, N.C., […]), whereas bromelain (from pineapple stem, 2000 GDU/g) was manufactured by Ultra Bio-Logics Inc. (Montreal, QC, Canada), Dipeptidyl-peptidase IV (D7052, from porcine kidney), Gly-Prop-nitroanilide hydrochloride, trichloroacetic acid (TCA), L-leucine, and diprotin A were purchased from Sigma-Aldrich (St. Louis, Mo.). Trinitrobenzenesulfonic acid (TNBS) was obtained from Fluka Biochemika Oakville ON, Canada). Other chemicals and reagents used were of analytical grade and commercially available,
DPP-IV activity determination was performed in 96-well microplates. In order to measure an increment in absorbance at 405 nm, Gly-Pro-p-nitroanilide is used as a DPP-IV substrate. […] The absorbance of the resulting solution was measured at 405 nm with a microplate reader (iEMS reader MF; Labsystems, Helsinki, Finland). […]

DPP-IV = DPP-IV (Homo sapiens, UniProt P27487); details: cited from earlier work

## CC[C@H](C)[C@H](N)C(=O)N1CCC[C@H]1C(=O)N[C@H](C(=O)O)[C@@H](C)CC [diprotin A, Ile-Pro-Ile]
[1]
  IC50: 24.7 µM
DPP-IV; isolated from culture filtrates of Bacillus cereus BMF673-RF1, related art
  IC50 values, inhibitory activity on DPP-IV: 1.1 µg/mL (≈ 3.22 µM)
DPP-IV; previous studies, read-out: IC50 values against DPP-IV
  IC50: 3.2 µM
DPP-IV; reported by Patent WO 2006/068480, read-out: IC50 value against DPP-IV
  IC50: ~5 µM
